Test results published in US20140213575A1, “6H-Thieno[3,2-f][1,2,4]triazolo[4,3-a][1,4]diazepines” (BAYER INTELLECTUAL PROPERTY GMBH, priority 2011, published 2014).

Assay: In-vivo tolerability in the mouse
Set-up: species or system female NMRI nude mice
Details: female, NMRI nude, oral, twice daily, after 5 days of treatment, read-out: maximum tolerated treatment dose (MTD), twice daily administration
Description: The substances were formulated in NMP/PEG300 (1/9 V/V). They were administered orally, in an amount of 10 ml/kg, once or twice daily for a period of 5 to 7 days to female NMRI nude mice (6-8 weeks old; 3 animals per group). Body weight and mortality of the mice were monitored daily up to the end of the study. Toxicity was defined as follows: ≧10% substance-induced deaths or ≧20% weight loss.

Cc1sc2c(c1C)C(c1ccc(Cl)cc1)=N[C@@H](CC(=O)OC(C)(C)C)c1nnc(C)n1-2 [Example V1, tert-Butyl[(S)-4-(4-chlorophenyl)-2,3,9-trimethyl-6H-thieno[3,2-f][1,2,4]triazolo[4,3-a][1,4]diazepin-6-yl]acetate, reference compound]
MTD at 5 days: 50 mg/kg
